Test results as given in PMC7718273, “Discovery of a novel fibroblast activation protein (FAP) inhibitor, BR103354, with anti-diabetic and anti-steatotic effects” (Scientific Reports, 2020).

Tests used:
[1] = tested on: ob/ob mice; test: Chronic study using ob/ob mice (4 weeks); conditions: after 4 weeks of treatment
[2] = tested on: T1, FAP; test: Chronic study using ob/ob mice: FAP activity at week 4; assay type: in vivo, mouse; conditions: 20 and 50 mg/kg, after 4 weeks of treatment
T1 construct: from tissue; host or cells: mouse serum/plasma (ob/ob and C57BL/6J mice)
From the text: Liver tissue was then collected. […] (assessed by KNOTUS).

[3] = molecular target: T2, PREP (Homo sapiens, UniProt P48147); test: PREP activity, fluorometric assay with AMC substrate; assay type: biochemical; conditions: IC50(PREP)/IC50(FAP)
T2 construct: purchased R&D Systems 4308-SE
T2 sequence (P48147 1-710): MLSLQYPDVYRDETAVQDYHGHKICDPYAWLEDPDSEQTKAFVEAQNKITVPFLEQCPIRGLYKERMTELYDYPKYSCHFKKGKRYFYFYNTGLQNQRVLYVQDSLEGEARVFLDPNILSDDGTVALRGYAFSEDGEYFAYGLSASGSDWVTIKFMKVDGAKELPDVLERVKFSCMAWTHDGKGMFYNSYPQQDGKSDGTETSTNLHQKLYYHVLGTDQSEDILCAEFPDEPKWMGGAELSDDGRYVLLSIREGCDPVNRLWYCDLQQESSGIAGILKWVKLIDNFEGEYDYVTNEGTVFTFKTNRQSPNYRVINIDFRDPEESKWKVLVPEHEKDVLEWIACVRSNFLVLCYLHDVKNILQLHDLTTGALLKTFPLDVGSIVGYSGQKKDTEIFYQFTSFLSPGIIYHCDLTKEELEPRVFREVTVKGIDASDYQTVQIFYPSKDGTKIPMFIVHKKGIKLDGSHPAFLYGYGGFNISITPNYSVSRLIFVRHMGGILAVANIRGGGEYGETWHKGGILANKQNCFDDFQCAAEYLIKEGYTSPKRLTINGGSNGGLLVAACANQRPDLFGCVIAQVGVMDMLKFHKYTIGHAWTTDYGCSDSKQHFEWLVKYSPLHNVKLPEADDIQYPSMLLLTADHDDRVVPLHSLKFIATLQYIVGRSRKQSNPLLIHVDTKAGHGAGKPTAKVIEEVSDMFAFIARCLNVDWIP
Description: Recombinant human PREP (hPREP) (catalog no. 4308-SE), hDPP2/7 (catalog no. 3438-SE), hDPP9 (catalog no. 5419-SE), hFAP (catalog no. 3715-SE), and hDPP4 (catalog no. 9168-SE) proteins were from R&D Systems (Minneapolis, MN). Human FGF21 (catalog no. CRF159C) was from Cell Science (Newburyport, MA).
FAP enzyme activities were assayed in 20 mM Tris/HCl, 0.1 M NaCl, 1 mM EDTA (pH 8.0) in the presence of 40 μM Suc-Gly-Pro-Leu-Gly-Pro-AMC (#I-1350.0100, BACHEM, Bubendorf, Switzerland) and hFAP in a total volume of 100 µL. The reaction mixture was incubated in the presence of various concentrations of BR103354 for 60 min at 37 °C, and the fluorescence of AMC released by FAP-induced cleavage was then determined at an emission wavelength of 450 nm with FlexStation 3 (Molecular Devices). The inhibitor concentrations ranged from 100 μM to 0.03 nM, and its IC50 values were computed with commercially available curve-fitting programs such as the SigmaPlot. Other protease activities were determined in a similar manner.

With N#Cc1ccc(Cc2nc(C(=O)NCC(=O)N3CC(F)(F)C[C@H]3C#N)cs2)cc1 [BR103354, (S)-N-(2-(2-cyano-4,4-difluoropyrrolidin-1-yl)-2-oxoethyl)-2-(4-cyanobenzyl)thiazole-4-carboxamide] the “insulin resistance (HOMA-IR)” value [1] was “ameliorated”, the “FAP activity inhibited, relative to vehicle group” value [2] was ≥ 80% and the “SI index (PREP/FAP)” value [3] was 27.6.
